Compounds with a hit are over-represented: about 1.3% of the library has one in this group of screens.
miR-21 reporter: miR-21 reporter, rising signal; HeLa miR-21 FLuc reporter, luciferase, 48 h; Potency, µM (titrated, usually from 38.3 µM), for the others: at the top dose reporter change, positive = more light; 340,000 tested, under 10 active; AID 2288; active = well fitted rising curve with a large enough effect; inconclusive = small, poorly fitted or top-dose-only effect; inactive = no such curve, though single readings can be large or run the other way;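 also: % of control where 0% means no effect; miR-21 action dims this reporter so a rising signal means less miR-21 action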
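Compounds were titrated across several concentrations (up to approximately 40 uM) and incubated 48 hours with HeLa miR-21-FLuc reporter cells (miR-21 target sequence downstream of FLuc, endogenous miR-21). Readout was firefly luciferase luminescence after lytic detection reagent.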
PTHR1 agonist: agonists of human PTHR1 parathyroid hormone receptor; Q03431; HEK293 GP2 PTHR1 cells, GloSensor cAMP luminescence, 1 h; 410,000 compounds, 0.075% hits; Potency, µM (doses to about 115 µM), for the others: at the top dose activation, hits mostly activators; note: potency is the fitted concentration of half-maximal effect; nearly all actives have a fitted effect of over 55% in size
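HEK-293-derived GP2 cells expressing PTHR1 and a GloSensor cAMP reporter, 3,000/well, plated overnight, given luciferin plus IBMX (each 0.5 mM as added) for 1 h at 37 °C, then compound for 1 h at 37 °C. Luminescence was read after 15 min at room temperature.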
Giardia killer: kills Giardia lamblia. Giardia lamblia trophozoite viability. 340,000 compounds, 0.15% hits. activity change, % at 7.66 µM, hits read low; in the data active = activity change below about -80%; inconclusive = between about -30% and that limit;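 note: parasites exposed to compound for two days anaerobically before the ATP read; % is set by controls: 0 for no effect and ±100 for the full control effect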
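Anaerobic 48 hrs incubation at 37 deg C of 100 trophozoites/well with test compounds; ATPLite 1-Step luminescence, 15-30 min RT, reports cellular ATP as viability.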
PINK1 expr mod: PINK1 expression modulation; PINK1 immunofluorescence, high-content cytometry, 24 h; Potency, µM (highest dose often 76.6 µM), inactives show at the top dose activation (PINK1 increase), actives largely listed as activators; 410,000 compounds, 0.2% hits; AID 624263; active = well fitted activation curve with a large enough effect; inconclusive = small, poorly fitted or top-dose-only effect; cell line not stated here; note: potency is the fitted concentration of half-maximal effect; % of control where 0% means no effect; nearly all actives have a fitted effect of over 65% in size
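Stable cell line treated 24 h with compounds at 5 concentrations (CCCP controls), then fixed and immunostained for PINK1 plus nuclear and cell stains; PINK1 immunofluorescence quantified by laser-scanning microplate cytometry.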
12-LOX inh: ALOX12 (human) lipoxygenase inhibition | purified 12hLO, xylenol orange hydroperoxide absorbance | P18054 | AID 1671190 | 580,000 compounds, 1.1% hits | Potency, µM (highest dose often 108 µM), for inactives: at the top dose activity change, negative = inhibition, usual class: inhibitors; note: potency is the fitted concentration of half-maximal effect; % is set by controls: 0 for no effect and ±100 for the full control effect
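Purified human 12hLO at 150 nM in 25 mM Hepes, 0.01% Triton X-100, pH 7.0, preincubated 15 min at room temperature with compound. Reaction started with 40 uM arachidonic acid, 30 min at room temperature. Hydroperoxide measured by Fe-xylenol orange, 573/405 nm absorbance ratio.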
ERG Ets-DNA blk: blocks human ERG Ets domain binding to DNA; P11308; fluorescence polarization, His-ERG Ets domain / labelled DNA; Potency, µM (titrated, usually from 76.9 µM), for the others: at the top dose FP activity, negative = inhibition, most hits filed as inhibitors; 370,000 compounds, 0.028% hits; AID 624246; active = well fitted inhibition curve with a large enough effect in the polarisation, with a control signal flat; inconclusive = small, poorly fitted or top-dose-only effect, or effect the other way, or a change in a side signal; inactive = no such curve, though single readings can be large or run the other way; the % refers to the polarisation;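 note: polarization taken with two DNA probes labelled with fluorescein and Texas red; potency is the fitted concentration of half-maximal effect; % of control where 0% means no effect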
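His-tagged ERG Ets domain (1 uM in the protein solution; 300mM KCl, 50mM Tris-HCl, 1mM EDTA, 1mM DTT, pH 7.5) received compound, then a probe mix of 5 nM fluorescein-DNA and 100nM Texas-615-DNA. Fluorescence polarization was read for both dyes.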
Active calls of the source: *; i = inactive; u = inconclusive; x = no result; [ ] = remark or other dose. Unless noted, calls come from the whole dose curve; as a rule, active = well fitted curve in the direction sought with a large enough effect; inconclusive = small, poorly fitted or top-dose-only effect, or another doubt; inactive = no such curve, though single readings can be large; an effect the other way counts as inactive or inconclusive.

Sample of the layout (two entries):
1	CCOc1ccccc1N1CSC2=C(C#N)C(c3c(OC)ccc4ccccc34)CC(=O)N2C1 (stereo not given)
2	COc1ccc(C2CC(=O)N3CN(c4ccc(C)c(Cl)c4)CSC3=C2C#N)cc1OC (stereo not given)

| screen / no. | 1 | 2 |
| --- | --- | --- |
| Giardia killer | -5 | -15 |
| PINK1 expr mod | 1% | 2% |
| 12-LOX inh | 3.2µM* | 35µM* |
| PTHR1 agonist | -2% | -39% |
| ERG Ets-DNA blk | 10% | 34% |
| miR-21 reporter | 7% | -24% |

Results, from the first entry:
1	CCOc1ccccc1N1CSC2=C(C#N)C(c3c(OC)ccc4ccccc34)CC(=O)N2C1 (stereo not given)
2	COc1ccc(C2CC(=O)N3CN(c4ccc(C)c(Cl)c4)CSC3=C2C#N)cc1OC (stereo not given)
3	CCc1ccc(N2CSC3=C(C#N)C(c4cccs4)CC(=O)N3C2)cc1 (stereo not given)
4	CCOC(=O)c1ccc(N2CSC3=C(C#N)C(c4cccs4)CC(=O)N3C2)cc1 (stereo not given)
5	COc1ccc(N2CSC3=C(C#N)C(c4cc(OC)ccc4OC)CC(=O)N3C2)c(OC)c1 (stereo not given)
6	COc1ccc(N2CSC3=C(C#N)C(c4ccc(OC)c(OC)c4)CC(=O)N3C2)c(OC)c1 (stereo not given)
7	COC(=O)[C@]12C[C@H](CC(=O)N3CCSCC3)C(=O)N(CCC3=CCCCC3)C1=C[C@H](COCc1ccccc1)O[C@@H]2C
8	CC(C)N1CCN(Cc2ccc3c(c2)Cc2ccccc2-3)CC1CCO (stereo not given)

| screen / no. | 1 | 2 | 3 | 4 | 5 | 6 | 7 | 8 |
| --- | --- | --- | --- | --- | --- | --- | --- | --- |
| Giardia killer | -5 | -15 | -8 | u | 7 | 2 | x | -6 |
| PINK1 expr mod | 1% | 2% | 11% | 4% | 0% | 0% | x | 7% |
| 12-LOX inh | 3.2µM* | 35µM* | x | 18µM* | x | u | -1% | 9% |
| PTHR1 agonist | -2% | -39% | -15%[57.5 µM] | -21% | -19% | i | x | i |
| ERG Ets-DNA blk | 10% | 34% | 9% | -13% | 3% | 1% | x | 8% |
| miR-21 reporter | 7% | -24% | -25% | -10% | -8% | -2% | x | -2% |

Only PTHR1 agonist and miR-21 reporter, for 4 of the compounds above:
cpd	molecule	PTHR1 agonist	miR-21 reporter
5	COc1ccc(N2CSC3=C(C#N)C(c4cc(OC)ccc4OC)CC(=O)N3C2)c(OC)c1 (stereo not given)	-19%	-8%
8	CC(C)N1CCN(Cc2ccc3c(c2)Cc2ccccc2-3)CC1CCO (stereo not given)	i	-2%
3	CCc1ccc(N2CSC3=C(C#N)C(c4cccs4)CC(=O)N3C2)cc1 (stereo not given)	-15%[57.5 µM]	-25%
6	COc1ccc(N2CSC3=C(C#N)C(c4ccc(OC)c(OC)c4)CC(=O)N3C2)c(OC)c1 (stereo not given)	i	-2%

Next structures follow.
9	COc1ccc(-c2cnc3c(NC=O)cc(-c4ccc(C(=O)N5CCOCC5)cc4)cn23)cc1OC
10	COc1cc(C2CC(=O)N3CN(c4ccc(C)c(Cl)c4)CSC3=C2C#N)ccc1O (stereo not given)
11	CCOc1cc2[nH]c(=O)n(Cc3ccc(C(=O)N4CCN(c5ccccc5)CC4)cc3)c(=O)c2cc1OCC
12	Fc1ccc(Sc2cc(Cl)c(-c3ccccc3)nn2)cc1
13	Cc1cccc(CNc2cc(-c3cccc(NS(C)(=O)=O)c3)ncn2)c1
14	Cc1cccc(CNc2cc(-c3ccoc3)ncn2)c1
15	Cc1cccc(CNc2ccnc(-c3cccc(NS(C)(=O)=O)c3)n2)c1
16	Cc1c(/C=N/NC(=O)c2ccccc2O)c2ccccn2c1C(=O)c1ccc(F)cc1

| screen / no. | 9 | 10 | 11 | 12 | 13 | 14 | 15 | 16 |
| --- | --- | --- | --- | --- | --- | --- | --- | --- |
| Giardia killer | x | x | x | 8 | x | x | x | u |
| PINK1 expr mod | 9% | x | 2% | 1% | 2% | 3% | 2% | 28µM* |
| 12-LOX inh | u | 0.89µM* | 2% | 30% | 35µM* | 18µM* | u | -26% |
| PTHR1 agonist | 5% | x | 0% | -5% | x | x | x | -5% |
| ERG Ets-DNA blk | x | x | 2% | -4% | x | x | x | -5% |
| miR-21 reporter | x | x | 1% | -2% | x | x | x | -12% |

17	CCN(CC)S(=O)(=O)c1cc([N+](=O)[O-])ccc1NNC(=O)Nc1ccc(Cl)c(Cl)c1
18	COC(=O)C(=Nc1ccccc1)/C(C(=O)C(=O)N(C)c1ccccc1)=C(\O)c1ccccc1
19	CCCCN(C)C(=O)C1CCN(Cc2cccc(OCc3ccccc3)c2)CC1
20	CCN(CC)C(=O)C1CCN(Cc2cccc(OCc3ccccc3)c2)CC1
21	CCCCN(C)C(=O)C1CCN(CC(C)c2ccccc2)CC1 (stereo not given)
22	CC(C)CNC(=S)NC(=O)c1ccc(F)cc1
23	COC(=O)C(Cc1ccccc1)NC(=S)NC(=O)c1ccccc1 (stereo not given)
24	O=C(NC(=S)NC(CO)Cc1ccccc1)c1ccc(F)cc1 (stereo not given)

| screen / no. | 17 | 18 | 19 | 20 | 21 | 22 | 23 | 24 |
| --- | --- | --- | --- | --- | --- | --- | --- | --- |
| Giardia killer | 2 | 0 | u | -1 | x | -3 | -14 | -1 |
| PINK1 expr mod | 14µM* | 1% | 9% | 1% | x | -1% | 2% | -1% |
| 12-LOX inh | u | 13µM* | 5.6µM* | u | 1µM* | 35µM* | u | 40µM* |
| PTHR1 agonist | -35% | -11% | -37% | i | x | i | -4% | i |
| ERG Ets-DNA blk | 7% | -1% | 5% | -9% | x | -2% | 0% | 9% |
| miR-21 reporter | u | -32% | 8% | 0% | x | -54% | 0% | -59% |

25	Cc1csc(=O)n1CCC(=O)OCC(=O)NCc1ccc(F)cc1
26	Cc1ccc(S(=O)(=O)Nc2cccc(-c3cn4ccsc4n3)c2)cc1
27	O=S(=O)(Nc1ccc(-c2cn3ccsc3n2)cc1)c1ccccc1
28	COc1ccc(OC)c(-n2c(-c3cccc(C)c3)n[nH]c2=S)c1
29	COc1ccc(-c2n[nH]c(=S)n2-c2ccc(Br)cc2)cc1OC
30	COc1cc(-c2n[nH]c(=S)n2-c2ccc(C)cc2)cc(OC)c1OC
31	OCC1(CN2CCCC2)CCN(C/C=C/c2ccccc2)CC1
32	O=C1CC2CCN(C(=O)c3ccccc3)CC2CCN1 (stereo not given)

| screen / no. | 25 | 26 | 27 | 28 | 29 | 30 | 31 | 32 |
| --- | --- | --- | --- | --- | --- | --- | --- | --- |
| Giardia killer | 4 | -15 | x | 26 | -5 | 1 | x | x |
| PINK1 expr mod | 1% | 6% | x | -1% | 0% | -1% | x | x |
| 12-LOX inh | -10% | u | 35µM* | 35µM* | 16µM* | u | 24% | 50µM* |
| PTHR1 agonist | i | -17%[57.5 µM] | x | -15% | -15% | 18% | x | x |
| ERG Ets-DNA blk | -4% | -5% | x | -11% | -3% | 9% | x | x |
| miR-21 reporter | x | 22% | x | -9% | -15% | -1% | x | x |

33	O=C1CC2CCN(C(=O)c3ccc(F)cc3)CC2CCN1 (stereo not given)
34	Cc1ccc(CNC(=O)Cn2cnc3cc([N+](=O)[O-])ccc3c2=O)cc1
35	N#Cc1c(Cl)nsc1NC(=O)c1ccccc1
36	COc1cc([C@H]2OC[C@H]3[C@@H]2CO[C@H]3c2ccc(O)c(OC)c2)ccc1O
37	COc1cc(C2OCC3C(c4ccc(OC5OC(CO)C(O)C(O)C5O)c(OC)c4)OCC23)ccc1O (stereo not given)
38	COc1ccc(OC)c(C(c2nnnn2Cc2ccco2)N2CCN(C)CC2)c1 (stereo not given)
39	Clc1ccccc1C(c1nnnn1Cc1ccco1)N1CCN(Cc2ccco2)CC1 (stereo not given)
40	Clc1cccc(-n2c(SCc3cn4ccccc4n3)nnc2N2CCCC2)c1

| screen / no. | 33 | 34 | 35 | 36 | 37 | 38 | 39 | 40 |
| --- | --- | --- | --- | --- | --- | --- | --- | --- |
| Giardia killer | x | -20 | 2 | -13 | 4 | -3 | 0 | x |
| PINK1 expr mod | x | -3% | 13µM* | -1% | -1% | -1% | -1% | x |
| 12-LOX inh | -8%[12.5 µM] | -3% | u | -1% | 5µM* | -17% | 45µM* | -1% |
| PTHR1 agonist | x | i | -29% | -17% | -23% | i | i | x |
| ERG Ets-DNA blk | x | 4% | -4% | -11% | -21% | -1% | 8% | x |
| miR-21 reporter | x | -1% | 19% | x | -22% | -1% | -4% | x |

Bioassay records: PubChem, National Center for Advancing Translational Sciences (NCATS)
